# Assay outcomes: PubChem BioAssay, National Center for Advancing Translational Sciences (NCATS)
# Nrf2 ARE act – activates Nrf2 signaling; AREc32 ARE-luciferase reporter (MCF7-derived line), luminescence, 24 h; Potency, µM (titrated, usually from 46.1 µM), inactives show top-dose activation, most hits filed as activators; AID 624171; actives 0.31% (n = 410,000); further: potency means the concentration at half of the fitted maximal effect; % of control where 0% means no effect; nearly all actives have a fitted effect of over 65% in size
#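 Steps: seed AREc32_Fluc cells (1000/well, 5% FBS OPTI-MEM); incubate overnight at 37 deg C; add 23 nL compound; incubate 24 hr; add Steady-Glo; hold 30 min RT; read luminescence.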
# B2AR arrestin – agonists driving beta-arrestin recruitment to human beta2-adrenergic receptor; P07550; beta-arrestin recruitment to beta2AR, cell-based reporter; Potency, µM (highest dose often 46.1 µM), without a hit: top-dose activation, usual class: activators; actives 0.02% (n = 330,000); AID 492947;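 further: potency means the concentration at half of the fitted maximal effect; 0% = DMSO controls and full agonism = EC100 isoproterenol or metaproterenol; nearly all actives have a fitted effect of over 65% in size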
# A549 tox – kills or reduces viability of A549 cells in Nrf2 counter-screen | A549 ARE-Fluc cells, CellTiter-Fluor viability, 18-24 h | Potency, µM (titrated, usually from 46 µM), without a hit: at the highest dose activity change, negative = cytotoxicity, usual class: inhibitors | actives 0.16% (n = 390,000) | AID 504648; further: potency means the concentration at half of the fitted maximal effect; on the % scale 0 is the no-effect control and ±100 the full control effect
#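 A549 ARE-Fluc cells in 5% FBS OPTI-MEM, 5000 cells/well, rested 2 h then exposed to compounds in concentration-response for 18-24 h at 37 °C. Viability by CellTiter-Fluor fluorescence (Ex 405/Em 525) after 30 min; luciferase luminescence (BugLite, 15 min, RT) read afterwards.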
# miR-21 FLuc – miR-21 reporter, rising signal | HeLa miR-21 FLuc reporter, luciferase, 48 h | Potency, µM (highest dose often 38.3 µM), for inactives: at the top dose reporter change, positive = more light | 340,000 tested, under 10 active | AID 2288; active = well fitted rising curve with a large enough effect; inconclusive = small, poorly fitted or top-dose-only effect; inactive = no such curve, though single readings can be large or run the other way;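 further: % of control where 0% means no effect; miR-21 action dims this reporter so a rising signal means less miR-21 action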
#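 Compounds were titrated across several concentrations (up to approximately 40 uM) and incubated 48 hours with HeLa miR-21-FLuc reporter cells (miR-21 target sequence downstream of FLuc, endogenous miR-21). Readout was firefly luciferase luminescence after lytic detection reagent.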
# Nrf2 inh – inhibitors of Nrf2 signaling. A549 ARE-Fluc reporter, luciferase luminescence, 18-24 h. actives 2.1% (n = 360,000). AID 504444. Potency, µM (titrated, usually from 46 µM), inactives show at the top dose activity change, negative = inhibition, usual class: inhibitors; further: potency means the concentration at half of the fitted maximal effect; on the % scale 0 is the no-effect control and ±100 the full control effect; nearly all actives have a fitted effect of over 60% in size
#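 Two sequential reads on A549 ARE_Fluc cells exposed to compound for 18-24 h: a CellTiter-Fluor fluorescence read for viability, then a luciferase luminescence read for Nrf2/ARE activity.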
# The depositor's hits bear a star; ? = inconclusive; / = not tested or not shown; [ ] = dose if it differs, or a comment. Most compounds without a hit are left out; they make up all but 2.2% or so of the library. Unless noted, the call rests on the fitted dose curve; in most records, active means well fitted curve in the direction sought with a large enough effect; inconclusive means small, poorly fitted or top-dose-only effect, or another doubt; inactive means no such curve, though single readings can be large; an effect the other way counts as inactive or inconclusive.
canonical_smiles | Nrf2 ARE act | B2AR arrestin | A549 tox | miR-21 FLuc | Nrf2 inh
CCC(C)(C)c1ccc(OCCCC[n+]2ccccc2)c(C(C)(C)CC)c1 | -3% | 0% | ? | ? | 23µM*
CCCCCc1ccc(OCCCC[n+]2cccc(C)c2)c(CCCCC)c1 | -3% | 0% | ? | -6% | ?
Cc1ccc(N2CC3=C(C2=O)C(c2ccc(Br)cc2)NC(=O)N3C)cc1 (stereo unspecified) | 0% | / | 1% | 0% | 1%
CC1CCN(S(=O)(=O)c2ccc3c4c2CC(=O)N4CC(C)S3)CC1 (stereo unspecified) | 10% | 0% | -8% | 5% | 21µM*
O=C(N1CCc2cc([S+](=O)([O-])N3CCN([S+](=O)([O-])c4c(F)cccc4F)CC3)ccc2C1)C(F)(F)F | / | / | 2% | / | 11%
CCOC(=O)c1[nH]c2c(c1C)C(=O)CC(c1ccc(OC)c(OC)c1)C2 (stereo unspecified) | 0% | 0% | -7% | -5% | -2%
CCOCCOC(=O)c1[nH]c2c(c1C)C(=O)CC(c1ccc(OC)c(OC)c1)C2 (stereo unspecified) | 2% | 0% | -1% | 11% | 21µM*
Cc1cc2c(Nc3cccc(O)c3)ncnc2s1 | 5% | ? | 2% | -30% | 2%
Cc1cc2c(Nc3ccccc3O)ncnc2s1 | 11µM* | / | / | / | /
Cc1ccc(-c2cn3c(=O)cc(C)[nH]c3n2)cc1 | 0% | 0% | -15% | -15% | 5.8µM*
Cc1cc(=O)n2cc(-c3ccccc3)nc2[nH]1 | 0% | 0% | 7% | -23% | 6%
Cc1ccc(C)c(Nc2nc(-c3ccccc3)c3cc(Br)ccc3n2)c1 | -1% | / | 2% | 0% | -3%
N#Cc1ccc2c(c1)C[C@]1(c3ccsc3)Oc3c(c(=O)oc4ccccc34)C2O1 | / | 0%[9.22 µM] | / | -10%[7.66 µM] | /
O=C(CN1CCCCC1)Nc1cc(Cl)ccc1Oc1ccccc1 | -1% | -1% | -5% | -2% | ?
CC(C)CN1C(=O)C(=O)N(CC(=O)Nc2cc(Cl)ccc2Oc2ccccc2)C1=O | 3% | 0% | ? | -8% | 23µM*
Fc1ccc2[nH]c3c(NCc4ccccc4)ncnc3c2c1 | 6% | 0% | -14% | ? | 18µM*
OCCCNc1ncnc2c1[nH]c1ccccc12 | 0% | 0% | 1% | -21% | -11%
CCN(CC)CCNc1ncnc2c1[nH]c1ccc(OC)cc12 | / | 1% | / | -2% | /
COc1ccc2[nH]c3c(NCc4ccco4)ncnc3c2c1 | 3.2µM* | 0% | 7% | -19% | ?
N#Cc1nc(Nc2cc(Cl)cc(Cl)c2)nc(NC2CCCC2)n1 | / | / | -27% | / | ?
Cc1c(CCC(=O)O)c(=O)oc2cc(OCc3ccccc3Br)ccc12 | -2% | -1% | -6% | 8% | 21µM*
Cc1cccc(C(=O)NCC(c2ccc3c(c2)OCO3)N2CCOCC2)c1 (stereo unspecified) | 0% | / | -8% | -5% | /
O=C(CCc1ccncc1)NC1CCCc2c1cnn2-c1ccc(F)cc1F (stereo unspecified) | -1% | 0% | -10% | 21% | 8.2µM*
Cc1nnsc1C(=O)NC1CCCc2c1cnn2-c1ccccc1F (stereo unspecified) | 2% | 0% | -16% | 20% | 2.1µM*

# Full records, looked up by structure. Order of values: Nrf2 ARE act | B2AR arrestin | A549 tox | miR-21 FLuc | Nrf2 inh
# CC1CCN(S(=O)(=O)c2ccc3c4c2CC(=O)N4CC(C)S3)CC1 (stereo unspecified) is listed as 10% | 0% | -8% | 5% | 21µM*
# Cc1nnsc1C(=O)NC1CCCc2c1cnn2-c1ccccc1F (stereo unspecified) is listed as 2% | 0% | -16% | 20% | 2.1µM*
# N#Cc1ccc2c(c1)C[C@]1(c3ccsc3)Oc3c(c(=O)oc4ccccc34)C2O1 is listed as / | 0%[9.22 µM] | / | -10%[7.66 µM] | /
# COc1ccc2[nH]c3c(NCc4ccco4)ncnc3c2c1 is listed as 3.2µM* | 0% | 7% | -19% | ?
# Cc1cccc(C(=O)NCC(c2ccc3c(c2)OCO3)N2CCOCC2)c1 (stereo unspecified) is listed as 0% | / | -8% | -5% | /

# New compounds follow.
canonical_smiles | Nrf2 ARE act | B2AR arrestin | A549 tox | miR-21 FLuc | Nrf2 inh
COc1ccc(NC(=O)c2cc(-c3cccs3)on2)c(OC)c1 | 1.3µM* | 0% | 8% | -3% | 4%
COc1ccc(Cn2nnnc2C(c2ccccn2)N2CCN(c3ccc(O)cc3)CC2)cc1 (stereo unspecified) | / | / | 0% | / | -17%
CCc1nnc(NC(=O)c2ccc(Cl)c(S(=O)(=O)N3CCc4ccccc4C3)c2)s1 | -1% | 0% | -4% | -2% | 18µM*
O=C(Nc1ccccn1)c1ccc(Cl)c(S(=O)(=O)N2CCc3ccccc32)c1 | -1% | 0% | -23% | / | 21µM*
Cc1ccc(S(=O)(=O)N[C@@H](Cc2ccccc2)C(=O)CCl)cc1 | 6% | 0% | -10% | ? | 18µM*
Cc1ccc(S(=O)(=O)NC(Cc2ccccc2)C(=O)NN)cc1 (stereo unspecified) | 0% | -1% | 2% | 0% | -2%
COc1ccccc1/C=C/C(=O)Nc1ccc(N2CCOCC2)cc1 | 0% | 0% | -23% | -1% | 12µM*
COc1cccc(/C=C/C(=O)Nc2ccc(N3CCOCC3)cc2)c1OC | 3% | 0% | 1% | -41% | ?
COc1cc2cc(C(=O)N(C)Cc3ccccc3)[nH]c2cc1OC | 0% | 0% | 3% | -1% | 5%
C=CCN(Cc1ccc(OC)c(OC)c1)C(=O)c1cc2cc(F)ccc2[nH]1 | 4% | 0% | ? | 0% | 23µM*
c1ccc(-n2ncc3c2ncn2nc(-c4ccco4)nc32)cc1 | 10µM* | 0% | -7% | -55% | ?
COc1ccc(N2CCN(C(=O)CCc3ccc(S(=O)(=O)NCC(C)C)cc3)CC2)cc1 | 3% | 0% | -24% | 17% | 26µM*
COc1ccc(N2CCN(C(=O)COC(=O)c3cccc(S(=O)(=O)Nc4cccc(C)c4)c3)CC2)cc1 | 0% | 1% | -5% | / | 26µM*
CCCCn1cc2c(c1-c1ccc(Cl)cc1)c(=O)n(C)c(=O)n2C | 1% | / | 12% | 16% | ?
CN(NC(=O)c1ccc(Cl)cc1)c1nc(-c2ccccc2)nnc1C(F)(F)F | 0% | 0% | -10% | 9% | 23µM*
COC(=O)C(C)N(C(=O)c1cccc2ccccc12)c1c(C)cccc1C (stereo unspecified) | -2% | 0% | -11% | 16% | 18µM*
COC(=O)C(C)N(C(=O)c1cccc(Cl)c1)c1c(C)cccc1C (stereo unspecified) | 0% | 3% | 3% | 13% | -10%
COc1cc(C(=O)/C=C/c2cccnc2)c([N+](=O)[O-])cc1OC | -4% | 0% | ? | / | 18µM*
COc1ccc(C2Nc3ccccc3C(=O)N2c2ccc(Cl)cc2)cc1COc1ccc(NC(C)=O)cc1 (stereo unspecified) | / | / | -2% | / | ?
CCS(=O)(=O)c1ccc(N=Nc2ccc(O)c3ncccc23)c(OC)c1 | 2% | 0% | 18µM* | ? | ?
COc1ccccc1N=Nc1ccc(O)c2ncccc12 | ? | 9% | -15% | 4% | -26%
Cc1nc2ccc(NS(=O)(=O)c3c(C)c(C)cc(C)c3C)cc2s1 | -1% | / | -11% | 23% | 15µM*
Cc1nc2ccc(NS(=O)(=O)c3ccccc3F)cc2s1 | 1% | -4% | 0% | / | ?
Cc1nc2cc(NS(=O)(=O)c3c(C)c(C)cc(C)c3C)ccc2s1 | 0% | 0% | ? | 20% | 11µM*
CCCC(/C=C/c1ccc(OC(C)=O)cc1)=C1/c2ccccc2C(=O)N1c1ccccc1 | 11µM* | 0% | -13% | / | -6%
